Test results reported in US10208020B2 (dated 2019).

Chains of the proteins cited; added tags and fusions are not shown. Residues count along the entry.
UniProt Q13231, 22-466: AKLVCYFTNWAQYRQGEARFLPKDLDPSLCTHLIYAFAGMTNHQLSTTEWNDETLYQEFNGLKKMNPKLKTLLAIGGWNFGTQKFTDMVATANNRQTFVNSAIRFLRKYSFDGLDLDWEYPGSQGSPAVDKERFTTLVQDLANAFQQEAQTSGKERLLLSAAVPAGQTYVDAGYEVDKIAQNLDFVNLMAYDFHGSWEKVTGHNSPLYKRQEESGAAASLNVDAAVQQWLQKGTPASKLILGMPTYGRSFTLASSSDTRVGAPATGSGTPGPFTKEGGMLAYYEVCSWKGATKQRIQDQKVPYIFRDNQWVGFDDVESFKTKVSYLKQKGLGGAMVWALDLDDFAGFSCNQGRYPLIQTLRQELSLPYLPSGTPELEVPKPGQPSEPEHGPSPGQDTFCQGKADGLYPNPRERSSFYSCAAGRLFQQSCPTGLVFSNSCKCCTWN

Target: recombinant human CHIT1 (Homo sapiens (Human), UniProt Q13231)
Experiment: Human CHIT1 activity assay
Type: biochemical

## CS(=O)(=O)N1C[C@H](Cc2ccc(Cl)cc2)N(C2CCN(c3nnc(N)[nH]3)CC2)C[C@@H]1Cc1ccc(Cl)cc1 [Example 36, 5-(4-((2S,5S)-2,5-bis(4-chlorobenzyl)-4-(methylsulfonyl)piperazin-1-yl)piperidin-1-yl)-4H-1,2,4-triazol-3-amine]
  IC50: 10 to 100 µM
